Target: Mtb DNA topoisomerase I (Mycobacterium tuberculosis, UniProt P9WG49)
Format: biochemical

By UniProt entry, the sequences of proteins in these tests, tags left out. Where a name states a change or a piece, a line headed by the entry shows the natural chain unless it says otherwise.
UniProt P9WG49: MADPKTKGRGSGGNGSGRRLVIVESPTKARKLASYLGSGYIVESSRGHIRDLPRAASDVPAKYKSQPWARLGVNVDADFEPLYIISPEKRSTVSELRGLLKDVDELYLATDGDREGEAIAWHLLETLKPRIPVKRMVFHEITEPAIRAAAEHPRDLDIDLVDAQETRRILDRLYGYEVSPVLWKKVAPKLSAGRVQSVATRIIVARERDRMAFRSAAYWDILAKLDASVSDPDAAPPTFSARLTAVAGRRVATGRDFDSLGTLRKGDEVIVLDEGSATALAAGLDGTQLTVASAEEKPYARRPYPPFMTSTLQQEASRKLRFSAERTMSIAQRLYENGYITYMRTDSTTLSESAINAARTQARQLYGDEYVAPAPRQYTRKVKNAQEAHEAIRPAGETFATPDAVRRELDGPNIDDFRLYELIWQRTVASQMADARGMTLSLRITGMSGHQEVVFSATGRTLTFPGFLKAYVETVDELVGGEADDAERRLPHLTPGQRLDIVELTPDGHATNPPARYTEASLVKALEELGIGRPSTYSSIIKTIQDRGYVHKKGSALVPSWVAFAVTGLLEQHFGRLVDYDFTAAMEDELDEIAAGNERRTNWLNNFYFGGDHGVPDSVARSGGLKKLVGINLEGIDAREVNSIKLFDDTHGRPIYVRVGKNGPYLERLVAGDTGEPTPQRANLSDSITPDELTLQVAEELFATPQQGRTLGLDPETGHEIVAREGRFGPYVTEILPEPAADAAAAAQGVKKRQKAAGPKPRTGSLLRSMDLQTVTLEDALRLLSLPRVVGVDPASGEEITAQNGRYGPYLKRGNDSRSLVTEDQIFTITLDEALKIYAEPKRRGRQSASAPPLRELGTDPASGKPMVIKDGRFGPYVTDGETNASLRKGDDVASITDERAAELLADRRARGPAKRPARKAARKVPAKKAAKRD

## NCCCC[C@H](N)C(=O)O [L-lysine]
  fluorescence, HTS screening of 50-compound library for Mtb DNA topoisomerase 1 inhibitors: 1246

From patent US11732286B2, “T5 exonuclease-based method to identify DNA topoisomerase inhibitors” (The Florida International University Board of Trustees, priority 2020, dated 2023)
